Values after ≈ are worked out from the molar mass of the structure shown.
What was measured:
C. difficile [1] = assay: MIC by agar dilution, C. difficile; assay type: cell-based, Clostridium difficile; details: Clostridioides difficile, read-out: MIC C. difficile
Experimental: A standard broth dilution protocol was used in 96 well microplates containing a standard dilution of the microorganism to be tested in 100 microliters of the appropriate medium. Appropriate medium: E. coli, LB medium; Staphylococcus strains, Trypticase Soy; and for H. pylori and C. jejuni, Brain Heart Infusion. The compounds to be tested were set at 32 μg/ml in 200 microliters in well one and then serially diluted to provide a range from 32 to 0.06. The wells were scored visually at 24 h. The well where there was no growth was recorded as the MIC. […]
(§1) Representative compounds of the invention were tested in a series of assays against a series of organisms as described above. […] The organisms tested include, C. difficile, H. pylori, C. jejuni, MRSA, S. epidermidis, and E. coli. S. epidermidis and E. coli were tested in the plank and biofilm assay. A disk diffusion assay was also used for C. difficile. Direct PFOR enzyme assays were also performed. All analogues and derivatives were not tested on every organism in every type of assay (the “-” in each table means that it was not tested).

H. pylori = assay: MIC testing by broth dilution, H. pylori; assay type: cell-based; details: Helicobacter pylori, read-out: MIC H. pylori
Experimental: (§2) A standard broth dilution protocol was used in 96 well microplates containing a standard dilution of the microorganism to be tested in 100 microliters of the appropriate medium. Appropriate medium: E. coli, LB medium; Staphylococcus strains, Trypticase Soy; and for H. pylori and C. jejuni, Brain Heart Infusion. The compounds to be tested were set at 32 μg/ml in 200 microliters in well one and then serially diluted to provide a range from 32 to 0.06. The wells were scored visually at 24 h. The well where there was no growth was recorded as the MIC. Clostridium difficile was tested by agar diffusion and disk diffusion (Kirby Bower) methods under anaerobic conditions on Wilkins Chalgrin agar. In these assays, zone of inhibited growth was measured and compared by relative ratio to the zone recorded for NTZ.
as §1

MRSA = assay: MIC testing by broth dilution, MRSA; assay type: cell-based; details: Staphylococcus aureus, read-out: MIC MRSA
Experimental: as §2, §1

S. epidermidis = assay: MIC testing by broth dilution, S. epidermidis plank; assay type: cell-based; details: Staphylococcus epidermidis, read-out: MIC S. epidermidis Plank
Experimental: as §2, §1

E. coli = assay: MIC testing by broth dilution, E. coli plank; assay type: cell-based; details: Escherichia coli, read-out: MIC E. coli Plank
Experimental: as §2, §1

E. coli biofilm = E. coli biofilm assay (activity tables); assay type: cell-based; details: Escherichia coli, read-out: MIC E. coli Biofilm
Experimental: A quantitative biofilm assay was used to determine the effect of NTZ on biofilm formation (41). Strain 042 was grown overnight at 37° C. with shaking and inoculated 1:100 in 200 μl culture medium in Costar 96-well, flat-bottom, polystyrene microtiter plates containing appropriate concentrations of NTZ. Plates were incubated statically at 37° C. in a humidified incubator. At 24 h, bacterial growth was measured by either transferring […] aliquots to another microtiter plate to determine turbidity or by diluting 100 μl aliquots 1:100 in 9.9 ml PBS for quantitative plate counts on LB medium. Bacterial counts in triplicate are reported as cfu/ml. Biofilm was visualized following staining with 0.5% crystal violet (41) and the absorbance was read at 570 nm using a microplate reader (Molecular Dynamics). All experiments were in triplicate and reported as mean and standard deviation.
A standard broth dilution protocol was used in 96 well microplates containing a standard dilution of the microorganism to be tested in 100 microliters of the appropriate medium. […] The wells were scored visually at 24 h. The well where there was no growth was recorded as the MIC. […] In these assays, zone of inhibited growth was measured and compared by relative ratio to the zone recorded for NTZ. […]

C. difficile [2] = assay: Disk diffusion (Kirby Bower), C. difficile; assay type: cell-based, Clostridium difficile; details: Nitazoxanide = 100; Thiophene analogues table
Experimental: as §2, §1

[3] = system: PFOR (pyruvate ferredoxin oxidoreductase); assay: Direct PFOR enzyme assay; assay type: biochemical; details: Thiophene analogues table
Experimental: as §1

O=C(Nc1ncc([N+](=O)[O-])s1)c1ccc(Cl)s1 [VPC16a1011, 5-Chloro-N-(5-nitrothiazol-2-yl)thiophene-2-carboxamide]
MIC (C. difficile [1]): 6.9 µM (≈ 2 µg/mL)
MIC (H. pylori): 5.2 µM (≈ 1.51 µg/mL)
MIC (MRSA): 10.4 µM (≈ 3.01 µg/mL)
MIC (S. epidermidis): 27.6 µM (≈ 8 µg/mL)
MIC (E. coli): 110 µM (≈ 32 µg/mL)
MIC (E. coli biofilm): 0.9 µM (≈ 0.261 µg/mL)
Disk Diff (%) C. difficile (C. difficile [2]): 89%
PFOR inhibition relative to nitazoxanide (=100) [3]: 65%

Source: patent US8835644B2, “Broad spectrum benzothiophene-nitrothiazolide and other antimicrobials” (University of Virginia Patent Foundation, priority 2009, dated 2014)
